Counter-ions that a name gives are not always drawn.

By UniProt entry, the sequences of proteins in these tests, tags left out.
UniProt Q8IKR1, entry or part of it: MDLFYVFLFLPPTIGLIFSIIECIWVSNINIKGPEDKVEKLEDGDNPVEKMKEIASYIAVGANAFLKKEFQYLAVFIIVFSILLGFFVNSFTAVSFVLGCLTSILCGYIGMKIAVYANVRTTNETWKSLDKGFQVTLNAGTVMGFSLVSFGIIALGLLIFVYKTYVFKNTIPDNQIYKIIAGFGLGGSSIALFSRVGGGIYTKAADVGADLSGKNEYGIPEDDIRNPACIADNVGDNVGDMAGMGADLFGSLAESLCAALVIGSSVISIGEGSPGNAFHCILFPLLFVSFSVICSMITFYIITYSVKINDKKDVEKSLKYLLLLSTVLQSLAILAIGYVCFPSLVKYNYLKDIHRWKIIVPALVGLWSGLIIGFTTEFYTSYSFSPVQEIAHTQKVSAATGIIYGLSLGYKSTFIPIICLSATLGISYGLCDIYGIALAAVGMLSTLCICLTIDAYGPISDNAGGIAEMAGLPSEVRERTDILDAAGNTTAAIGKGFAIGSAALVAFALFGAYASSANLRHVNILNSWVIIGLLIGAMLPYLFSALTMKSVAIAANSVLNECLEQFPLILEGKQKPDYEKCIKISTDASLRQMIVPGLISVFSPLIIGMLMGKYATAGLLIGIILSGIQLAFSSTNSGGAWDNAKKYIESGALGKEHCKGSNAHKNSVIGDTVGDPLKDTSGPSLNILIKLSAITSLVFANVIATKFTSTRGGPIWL

The assay has as its target PfPPase-VP1 (Plasmodium falciparum, UniProt Q8IKR1). The class given is biochemical. The note with it: purified PfPPase-VP1 reconstituted in liposomes, Tris-HCl pH 7.5, 50 °C, 45 min, triplicate; interval given. As to the method:
The activity of PfPPase-VP1 was determined using a molybdenum blue colorimetric activity assay in 96-well plate format to measure the amount of phosphate production, as previously described for TmPPase but with modifications to pH (5.2–10) and temperature conditions (20–70°C) as described below. To determine the optimal pH for PfPPase-VP1 activity, 5 μL of 2.5 mg/mL total membrane protein was added to the reaction mixture (60 mM of various buffers (below) with pHs ranging from 5.2–10.0, 3 mM MgCl2, 100 mM KCl, and 10 mM NaCl, 100 mM NaF, 5 μM Gramicidin D), to a final volume of 40 μL. Buffers were trisodium-citrate (pH 5.2), MES (pH 6.5), Tris-HCl (pH 6.8, 7.5, 8.0, and 8.8) and glycine-NaOH (pH 10.0). A control sample was prepared by heating the membrane faction at 90 °C for 5 min to inactivate the enzyme. The reaction mixture was incubated at 30 °C for 5 min in a 96-well heating block. After incubation, 10 µl of 2 mM sodium pyrophosphate (PPi) was added, mixed, and incubated for 10 min. […] Absorbance was measured at 860 nm on a MultiSkan Go UV/Vis spectrophotometer (Thermo Scientific). The specific activity of PfPPase-VP1 in the membrane was calculated using our previously published formula [23]. […] The catalytic reaction was run for 45 min at 50 °C, and the phosphate production was determined as described above. […]

Turning to `OC(c1cc(C(F)(F)F)nc2c(C(F)(F)F)cccc12)C1CCCCN1` (stereo not shown) [Compound 5, Mefloquine hydrochloride], the “IC50 (PfPPase, μM)” value is reported as “Inactive”.
